# AlphaSeq binding of Ab-14 heavy chain variants to a spike HR2 peptide

From the AlphaSeq antibody data of Engelhart et al. 2022 (doi:10.1038/s41597-022-01779-4), copy in the FLAb collection.

Antigen: PDVDLGDISGINAS, a 14-residue peptide of the SARS-CoV-2 spike HR2 region.

Parent scFv Ab-14: VH joined to VL by three GGGGS repeats. Changes lie in the heavy chain CDRs alone.
VH: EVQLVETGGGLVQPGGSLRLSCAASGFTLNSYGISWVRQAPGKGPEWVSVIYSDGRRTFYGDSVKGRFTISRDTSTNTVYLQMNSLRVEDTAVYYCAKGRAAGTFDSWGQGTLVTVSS
VL: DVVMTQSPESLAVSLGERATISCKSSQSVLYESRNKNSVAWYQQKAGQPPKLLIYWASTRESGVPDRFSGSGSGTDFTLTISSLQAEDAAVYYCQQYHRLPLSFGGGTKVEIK

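The starting antibody came from a phage panning campaign against this peptide. The library (AAYL49) carries one to three amino acid substitutions per variant, with no insertions or deletions. Affinity was read by AlphaSeq, a pooled yeast mating assay with surface-displayed partners. The frequency of each diploid, read from paired DNA barcodes, reflects how well the two displayed proteins bind. The ratio of observed to expected reads was calibrated, replicate by replicate, on BCL2-family standards whose Kd was known from biolayer interferometry. The assay was run in three technical replicates.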

Substitutions are numbered in sequence along the VH above, starting at 1 (not Kabat). Values are log10 of the apparent Kd in nM; lower means stronger binding. Replicates are averaged; those with no signal do not enter the mean. An entry "ND" has no value in the source: the pair was not observed among the diploids in that replicate. This suggests poor binding but is not conclusive.

changes	log10 Kd, replicates	log10 Kd (nM), mean	control signals
Y32V S35W R57E	3.08 4.64 ND	3.86	1 of 9 (2.04)
N30R G55M S107A	ND ND ND	ND	0 of 9
F27N R100Q S107G	4.27 3.41 3.72	3.80	2 of 9 (4.52)
S31Q S53L	ND 3.46 ND	3.46	0 of 9
K65F T104I F105N	ND ND ND	ND	0 of 9
Y32M D54Q	ND ND ND	ND	0 of 9
F27D G103I T104D	ND ND ND	ND	2 of 9 (3.76)
V50E K65Q T104Q	ND ND ND	ND	1 of 9 (3.86)
L29P G33P G61A	6.76 5.53 ND	6.14	6 of 9 (4.69)
A102P F105T S107V	0.54 0.71 0.64	0.63	1 of 9 (4.49)
I51Y	ND ND ND	ND	2 of 9 (3.89)
S31M A102R D106N	1.65 2.29 2.49	2.14	1 of 9 (3.55)
V50R V64T T104C	6.09 ND 3.72	4.91	3 of 9 (4.64)
T28H D62K V64W	5.92 ND 3.40	4.66	6 of 9 (3.67)
V50P V64Y D106P	ND ND ND	ND	0 of 9
G26D S53W	1.87 1.43 ND	1.65	0 of 9
V50G S53Y G55L	ND ND ND	ND	1 of 9 (3.53)
V50I D54A R57I	ND 5.56 ND	5.56	3 of 9 (4.11)
R100G A102T S107H	ND ND ND	ND	0 of 9
I34E S53M R56L	5.46 ND ND	5.46	2 of 9 (3.31)
V64N K65R T104H	ND ND ND	ND	0 of 9
Y32Q R57C S107F	5.17 3.18 5.00	4.45	5 of 9 (4.03)
N30C G33D D62V	5.84 5.69 4.70	5.41	6 of 9 (4.34)
F27I G103S S107F	ND ND ND	ND	0 of 9
I51M S53T T104K	3.30 3.27 ND	3.29	2 of 9 (4.22)
G61W V64T K65D	2.47 ND ND	2.47	0 of 9
Y52S D54H F59N	4.58 ND 5.83	5.21	2 of 9 (4.29)
S31T G103L S107L	ND ND ND	ND	3 of 9 (4.08)
Y52T S53L F59Y	ND ND ND	ND	0 of 9
S31V G61C D106A	2.40 2.55 2.00	2.32	3 of 9 (4.23)
S35N S53F R56S	ND ND ND	ND	1 of 9 (3.54)
S31F R100L T104G	ND 3.57 ND	3.57	0 of 9
T28Q V50I R57N	ND ND ND	ND	0 of 9
T58R D62C F105N	ND ND ND	ND	0 of 9
F59L	3.37 2.99 2.95	3.10	3 of 9 (4.99)
F27M D54G G55A	ND 4.91 ND	4.91	1 of 9 (3.55)
T28P D62S G99W	ND 4.03 ND	4.03	0 of 9
Y60F K65I	ND ND ND	ND	0 of 9
L29F T104G F105H	ND ND ND	ND	0 of 9
L29I I51H T58L	ND ND 3.59	3.59	1 of 9 (3.87)
S35C T58I G103R	4.88 3.30 5.28	4.49	3 of 9 (3.75)
V50N S53M D106G	3.77 3.52 ND	3.65	3 of 9 (4.15)
S53Q G55N A102Q	3.44 4.01 ND	3.73	2 of 9 (3.52)
I51V T58E R100Q	4.21 3.02 ND	3.61	5 of 9 (3.68)
F59N G99A A101V	4.60 ND ND	4.60	3 of 9 (3.80)
L29S S35F	3.77 4.30 ND	4.03	0 of 9
N30S S31D F59V	ND 3.49 ND	3.49	1 of 9 (4.37)
S35M G99S R100V	ND ND ND	ND	0 of 9
G26T F59R A101W	3.72 ND ND	3.72	5 of 9 (4.18)
S31M G61Y G99S	ND ND ND	ND	0 of 9

For reference, 7 entries of the list once more:

| changes | log10 Kd, replicates | log10 Kd (nM), mean | control signals |
|---|---|---|---|
| S31M G61Y G99S | ND ND ND | ND | 0 of 9 |
| G26T F59R A101W | 3.72 ND ND | 3.72 | 5 of 9 (4.18) |
| V50I D54A R57I | ND 5.56 ND | 5.56 | 3 of 9 (4.11) |
| I34E S53M R56L | 5.46 ND ND | 5.46 | 2 of 9 (3.31) |
| Y32Q R57C S107F | 5.17 3.18 5.00 | 4.45 | 5 of 9 (4.03) |
| V50R V64T T104C | 6.09 ND 3.72 | 4.91 | 3 of 9 (4.64) |
| S35M G99S R100V | ND ND ND | ND | 0 of 9 |

Parent in this assay: reference entry 0.65, copy in this library 4.11 (one replicate of three). As a blank, each scFv also met three strains without target: over library AAYL49, 15% of these pairings were detected, typically at 4.06 and seldom below 2.83. Also given: how often the same scFv was detected with the empty control strains, with their mean in brackets.